Assay [1] deals with fibrinogen (human) (UniProt P02671).
Assay [2] has the same target. Briefly: AlphaScreen or HTRF.

Protein sequences, listed by entry. Tags and fused reporters are not part of them. Residues count along the entry.
UniProt P02671, 36-866, chain 1 of 3: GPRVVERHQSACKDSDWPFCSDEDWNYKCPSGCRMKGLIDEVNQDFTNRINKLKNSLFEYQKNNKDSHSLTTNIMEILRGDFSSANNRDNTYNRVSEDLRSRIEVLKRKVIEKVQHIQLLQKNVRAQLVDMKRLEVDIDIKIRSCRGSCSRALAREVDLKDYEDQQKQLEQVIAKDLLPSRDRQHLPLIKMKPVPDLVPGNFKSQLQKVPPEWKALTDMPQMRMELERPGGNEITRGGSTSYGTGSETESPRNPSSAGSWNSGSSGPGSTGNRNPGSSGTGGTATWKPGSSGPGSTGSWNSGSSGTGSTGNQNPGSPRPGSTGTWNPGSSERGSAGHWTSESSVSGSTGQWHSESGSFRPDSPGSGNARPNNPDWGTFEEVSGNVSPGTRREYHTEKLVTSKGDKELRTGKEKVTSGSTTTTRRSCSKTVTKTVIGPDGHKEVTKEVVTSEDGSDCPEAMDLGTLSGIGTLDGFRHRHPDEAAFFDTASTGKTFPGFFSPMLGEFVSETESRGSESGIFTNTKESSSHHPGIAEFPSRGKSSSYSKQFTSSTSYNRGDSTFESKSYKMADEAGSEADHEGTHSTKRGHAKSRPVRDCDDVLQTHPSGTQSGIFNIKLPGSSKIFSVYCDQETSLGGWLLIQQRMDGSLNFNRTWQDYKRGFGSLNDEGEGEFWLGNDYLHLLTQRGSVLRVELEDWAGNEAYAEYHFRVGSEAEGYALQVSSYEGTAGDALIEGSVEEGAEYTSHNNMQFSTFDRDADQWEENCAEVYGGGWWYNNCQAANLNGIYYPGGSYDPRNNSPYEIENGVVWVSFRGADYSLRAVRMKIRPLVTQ

Substance Aβ40 (from UniProt P05067) (peptide) came in with an affinity relative to Aβ42 (fold lower) in assay [1] of 10 times.
For the substance “oligomeric biotin-LC-Aβ42 (from UniProt P05067) (peptide)”, in assay [2], the affinity relative to the monomer (fold higher) came out at 4 times.

The values are drawn from paper PMC4042638 (The Journal of Experimental Medicine, 2014).
